The values below come from PubChem BioAssay (Tox21).

Protein sequences, listed by entry. Tags and fused reporters are not part of them. Lines headed by an entry give the natural chain unless they say otherwise; changes in a name come on top.
UniProt P11473: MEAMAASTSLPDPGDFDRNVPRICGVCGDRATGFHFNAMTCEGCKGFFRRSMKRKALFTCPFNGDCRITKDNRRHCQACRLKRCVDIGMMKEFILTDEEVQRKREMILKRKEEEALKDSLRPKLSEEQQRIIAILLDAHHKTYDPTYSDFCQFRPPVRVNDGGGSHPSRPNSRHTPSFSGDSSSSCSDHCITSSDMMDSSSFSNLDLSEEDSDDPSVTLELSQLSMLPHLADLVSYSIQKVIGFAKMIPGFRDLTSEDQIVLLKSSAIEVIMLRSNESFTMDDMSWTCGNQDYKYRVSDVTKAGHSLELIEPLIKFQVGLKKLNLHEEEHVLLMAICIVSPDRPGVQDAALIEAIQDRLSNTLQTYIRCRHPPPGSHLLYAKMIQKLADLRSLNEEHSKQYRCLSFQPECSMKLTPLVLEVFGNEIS
UniProt P19793: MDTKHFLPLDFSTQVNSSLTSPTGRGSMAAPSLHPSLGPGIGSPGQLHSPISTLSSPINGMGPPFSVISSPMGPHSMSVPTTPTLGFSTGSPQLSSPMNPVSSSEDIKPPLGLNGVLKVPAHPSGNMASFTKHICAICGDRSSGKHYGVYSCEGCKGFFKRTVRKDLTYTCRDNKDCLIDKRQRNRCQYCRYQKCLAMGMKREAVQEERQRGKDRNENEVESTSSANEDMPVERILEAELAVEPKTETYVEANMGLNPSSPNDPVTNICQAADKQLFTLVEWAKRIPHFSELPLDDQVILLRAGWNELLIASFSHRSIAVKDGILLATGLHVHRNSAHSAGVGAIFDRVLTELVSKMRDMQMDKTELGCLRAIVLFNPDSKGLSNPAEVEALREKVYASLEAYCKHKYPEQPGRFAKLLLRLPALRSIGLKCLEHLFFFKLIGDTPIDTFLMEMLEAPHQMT

Each structure is given as a SMILES string. Values joined by “and” are separate entries in the source; they are usually repeats but may differ in a detail not shown here. Equal values may be shown once. This is a selection; strong and weak results do not stand in their true shares. Results filed as inconclusive are left out. Where a structure was tested more than once in an assay, its records may differ in their call. Active and inactive are the calls of the source. Unless noted, calls follow the shape of the full dose curve.

The target in test [1] is Vitamin D3 receptor (Homo sapiens) (UniProt P11473). As to the kind of experiment: qHTS assay to identify small molecule antagonists of the vitamin D receptor (VDR) signaling pathway (AID 743223; active = well fitted inhibition curve with a large enough effect in the signal ratio in the repeat runs, not every such curve was filed as active; the % refers to the signal ratio; also: % is scaled to controls: 0 for no effect and ±100 for the full control effect). The note with it: VDR-UAS-bla HEK293T, beta-lactamase FRET ratio, 16 h; at 61 µM (top of the series) unless noted. The essentials: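 Antagonist mode uses 1alpha,25-dihydroxyvitamin D3 at 3 nM final as stimulus. VDR-bla cells receive compounds in DMSO, incubate 16 h at 37C, then a beta-lactamase FRET substrate for 2 h at room temperature before fluorescence measurement.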
(Quantitative high-throughput screening tests each substance at several concentrations.)

Test [2] can be described thus: qHTS assay to identify small molecule antagonists of the vitamin D receptor (VDR) signaling pathway - cell viability counter screen (AID 743225; active = well fitted curve in the direction sought with a large enough effect in the repeat runs; an effect the other way counts as inactive or inconclusive; also: nearly all actives have a fitted effect of over 50% in size; also: potency is read from the fitted curve at half-maximal effect). In outline:
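Read-out: CellTiter-Glo luminescence measured 30 min after reagent addition at room temperature. Cells were VDR-bla HEK 293T exposed 16 h at 37C, 5% CO2, to compound with 3 nM final calcitriol agonist.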

A short description of test [3]: qHTS assay to identify small molecule agonists of the NFkB signaling pathway - cell viability counter screen (AID 1159515). Also: % is scaled to controls: 0 for no effect and ±100 for the full control effect; nearly all actives have a fitted effect of over 55% in size. The settings on record: NFkB-bla ME-180 viability, CellTiter-Glo luminescence, 5 h; at 61 µM (top of the series) unless noted. The essentials:
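ME-180 NFkB-bla cells, 2,000/well; overnight attach; compound 5 hr, 37 C/5% CO2; LiveBLAzer substrate 1.5 hr RT; then CellTiter-Glo in same wells, 30 min RT, luminescence read.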

A short description of test [4]: qHTS assay to identify small molecule agonists of the endoplasmic reticulum stress response signaling pathway (AID 1159516; active = well fitted activation curve with a large enough effect in the signal ratio in the repeat runs, not every such curve was filed as active; the % refers to the signal ratio; also: % is scaled to controls: 0 for no effect and ±100 for the full control effect). The note with it: ESRE-bla HeLa, ER stress beta-lactamase reporter, 5 h; at 61 µM (top of the series) unless noted. In outline:
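HeLa ESRE-bla reporter line; cpd 5 h, 37 C/5% CO2; LiveBLAzer B/G FRET substrate 2 h RT; ex 405, em 460/530 nm.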

The target in test [5] is Nuclear receptor ROR-gamma (Homo sapiens) (UniProt P51449). As to the kind of experiment: qHTS assay to identify small molecule antagonists of the retinoid-related orphan receptor gamma (ROR-gamma) signaling pathway (AID 1159521; active = well fitted curve in the direction sought with a large enough effect in the repeat runs; an effect the other way counts as inactive or inconclusive;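 also: CHO cells with doxycycline inducible ROR-gamma driving an RORE luciferase reporter; top concentration of the series differs between compounds; % is scaled to controls: 0 for no effect and ±100 for the full control effect; nearly all actives have a fitted effect of over 50% in size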). The settings on record: Tet-on RORgamma CHO cells, RORE-luciferase, 16 h.
Test [6] can be described thus: qHTS assay to identify small molecule agonists of the AP-1 signaling pathway - cell viability counter screen (AID 1159525). Also: nearly all actives have a fitted effect of over 55% in size. The note with it: ME-180 AP-1-bla cells viability, ATP luminescence, 5 h. In outline: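 Each titration point was normalised to DMSO and tetra n-octyl ammonium bromide controls. The read was Cell Titer Glo luminescence after 30 min at RT, following 5 h compound exposure of ME-180 AP-1-bla cells at 37 °C.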

Test [7] can be described thus: qHTS assay to identify small molecule agonists of the AP-1 signaling pathway (AID 1159526). Also: % is scaled to controls: 0 for no effect and ±100 for the full control effect. The settings on record: ME-180 AP-1-bla reporter, beta-lactamase FRET ratio, 5 h.
Test [8] concerns the target Retinoic acid receptor RXR-alpha (Homo sapiens) (UniProt P19793). As to the kind of experiment: qHTS assay to identify small molecule agonists of the RXR signaling pathway (AID 1159527). Also: % is scaled to controls: 0 for no effect and ±100 for the full control effect; nearly all actives have a fitted effect of over 35% in size. The settings on record: HEK293T RXRa-UAS-bla, beta-lactamase ratio, 16 h.
Test [9] can be described thus: qHTS assay to identify small molecule agonists of the RXR signaling pathway - cell viability counter screen (AID 1159529; active = well fitted curve in the direction sought with a large enough effect in the repeat runs; an effect the other way counts as inactive or inconclusive; also: nearly all actives have a fitted effect of over 50% in size; also: potency is read from the fitted curve at half-maximal effect). The essentials:
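HEK 293T RXRa-bla cells, 2% CS-FBS; 5 h settle; cpd 16 h 37 C, 5% CO2; CellTiter-Glo 30 min RT, luminescence. Tetraoctyl ammonium bromide as positive control.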

Test [10] in a line: qHTS assay to identify small molecule agonists of the NFkB signaling pathway (AID 1159509; active = well fitted curve in the direction sought with a large enough effect in the signal ratio in the repeat runs, not every such curve was filed as active; the % refers to the signal ratio; also: % is scaled to controls: 0 for no effect and ±100 for the full control effect). The settings on record: NFkB-bla ME-180 cells, beta-lactamase FRET ratio, 5 h; at 61 µM (top of the series) unless noted. The essentials: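 Readout: FRET fluorescence, 405 nm excitation, 460/530 nm emission; beta-lactamase expression disrupts FRET. Cells: ME-180 stably carrying NF-kB-driven bla reporter. Compound exposure 5 hr, 37 C, 5% CO2.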

The mark [11] stands for this setting: at 76.8 µM (top of the series) unless noted.

`NC(=O)Nc1ccc([As](=O)(O)O)cc1`: the activity change, negative = inhibition is inactive: 4.66% and inactive: -2.04% in test [1]; inactive: 11.2% in test [5] (at 42.5 µM (top of the series)); inactive: -16% in test [5] (at 92.4 µM (top of the series)). For the same compound, the Potency entry in test [2] and in test [9] was “inactive” throughout. Also, the activity, negative = cytotoxic in test [3] was inactive: 1.17% and inactive: 1.01%. The activation in test [4] was inactive: 1.8% and inactive: 0.109%; in test [7] (at 35.3 µM (top of the series)) it was inactive: -1.42%; in [7] (at 76.8 µM (top of the series)), inactive: -7.67%; in test [8] (at 35.3 µM (top of the series)) it was inactive: 10.4%; in test [8] (at 76.8 µM (top of the series)) it was inactive: 1.72%. The viability change, negative = cytotoxic in [6] (at 35.3 µM (top of the series)) is inactive: -25.2%; in test [6] (at 76.8 µM (top of the series)), inactive: 2.46%.
Consider `O=C1C2CC=CCC2C(=O)N1SC(Cl)(Cl)C(Cl)Cl` (configuration not stated), for which the values for the Potency in test [2] and in test [9] were active: 7.76 µM and active: 4.9 µM, respectively.
Consider `Cc1cc([N+](=O)[O-])cc([N+](=O)[O-])c1O`, for which, in test [1], the activity change, negative = inhibition was inactive: -11.5%. Also, the activation in [10] was inactive: -0.363% and inactive: -1.26%; in test [4], inactive: -5.03%. In addition, the viability change, negative = cytotoxic in [6] (setting [11]) was inactive: 7.59%. In addition, the Potency result in test [9] is “inactive and active: 3.46 µM”.
For `O=[As]c1ccccc1` (configuration not stated), the results for the Potency in test [2] and in [9] were active: 0.49 µM and active: 0.871 µM, respectively.
`COC(=O)Cl`: the Potency result in test [2] and in test [9] was “inactive” throughout. In addition, the activity, negative = cytotoxic in test [3] is inactive: 9.52%. Further, the values for the activation in [4], in [7] (setting [11]) and in test [8] (at 76.8 µM (top of the series)) were inactive: 0.391%, inactive: 0.633% and inactive: 5.12%, respectively. Besides, in [6] (setting [11]), the viability change, negative = cytotoxic is inactive: -0.0173%.
Turning to `CC(C)CCCCCCCOP(OCCCCCCCC(C)C)Oc1ccccc1`, the Potency entry in test [2] and in test [9] was “inactive” each time. Also, the activation in test [10] is inactive: 0.729%; in test [4], inactive: 1.96%; in [7] (setting [11]), inactive: 14%; in [8] (at 76.8 µM (top of the series)) it was inactive: 0.0298%. Further, in test [3], the activity, negative = cytotoxic was inactive: -12.2%. For the same compound, the activity change, negative = inhibition in [5] (at 92.4 µM (top of the series)) is inactive: -19.3%. In addition, the viability change, negative = cytotoxic in test [6] (setting [11]) is inactive: -5.04%.
For the compound `O=C(Cl)Oc1ccccc1`, the activity change, negative = inhibition in test [5] (at 92.4 µM (top of the series)) was inactive: 10.5%. Moreover, the viability change, negative = cytotoxic in test [6] (setting [11]) is inactive: -2.78%. The figures for the activation in test [7] (setting [11]) and in test [8] (at 76.8 µM (top of the series)) were inactive: -12.9% and inactive: -1.06%, respectively. The Potency entry in test [9] is “inactive”.
In the case of `Cc1cc([N+](=O)[O-])c(O)c([N+](=O)[O-])c1`, the Potency result in [2] and in test [9] was “inactive” throughout. Further, in test [3], the activity, negative = cytotoxic was inactive: -3.52% [at 78.8 µM]. The activation in test [4] was inactive: -3.82% [at 78.8 µM]; in [7] (setting [11]), inactive: 3.01%. In addition, in test [6] (setting [11]), the viability change, negative = cytotoxic is inactive: -8.77%.
With `O=[N+]([O-])c1ccc([N+](=O)[O-])cc1`, the viability change, negative = cytotoxic in test [6] (setting [11]) is inactive: -3.23%. Moreover, in test [9], the Potency entry was “inactive”.
As for `CCOC(=O)Cl`, the activity change, negative = inhibition was inactive: -0.447% in test [1] and inactive: -9.42% in test [5] (at 92.4 µM (top of the series)). The Potency entry in [2] and in test [9] was “inactive” throughout. In addition, the activation in [10] is inactive: 0.204%; in test [4], inactive: -2.26%; in test [7] (setting [11]) it was inactive: 0.601%; in test [8] (at 76.8 µM (top of the series)), inactive: 3.74%. In addition, the activity, negative = cytotoxic in test [3] is inactive: -2.61%. Also, the viability change, negative = cytotoxic in [6] (setting [11]) is inactive: -4.27%.
As to `O=P(Cl)(Oc1ccccc1)Oc1ccccc1`, the Potency result in test [2] and in test [9] was “inactive” in each case. The activation in test [10] is inactive: -1.19%; in [4], inactive: -0.149%; in [7] (setting [11]), inactive: 0.753%. Moreover, the activity, negative = cytotoxic in [3] is inactive: -0.555%. In [5] (at 92.4 µM (top of the series)), the activity change, negative = inhibition is inactive: -17.2%. Moreover, the viability change, negative = cytotoxic in [6] (setting [11]) is inactive: 0.073%.
Turning to `CCNC(C)Cc1ccc2c(c1)OCO2` (configuration not stated), the activity change, negative = inhibition in test [1] was inactive: 7.35% [at 78.8 µM]; in test [5] (at 92.4 µM (top of the series)), inactive: -22.8%. The Potency result in [2] and in test [9] was “inactive” throughout. In addition, the figures for the activation in test [10], in test [4] and in test [8] (at 76.8 µM (top of the series)) were inactive: 0.981% [at 78.8 µM], inactive: 7.04% [at 78.8 µM] and inactive: 5.42%, respectively. Besides, in test [3], the activity, negative = cytotoxic is inactive: -2.91% [at 78.8 µM]. In [6] (setting [11]), the viability change, negative = cytotoxic is inactive: 1.55%.
With `O=[N+]([O-])c1ccc(S(=O)(=O)O)c([N+](=O)[O-])c1`, the Potency entry in test [2] and in test [9] was “inactive” each time. Moreover, in test [3], the activity, negative = cytotoxic was inactive: 14.9% [at 78.8 µM]. Also, the activation in [4] is inactive: -1.2% [at 78.8 µM]; in [7] (setting [11]) it was inactive: -0.379%. Also, the viability change, negative = cytotoxic in [6] (setting [11]) was inactive: 7.8%.
With `CN(C(=O)Cc1ccccc1)[C@H]1CC[C@@]2(CCCO2)C[C@@H]1N1CCCC1`, the activity change, negative = inhibition in [1] was inactive: 14.2%; in test [5] (at 42.5 µM (top of the series)), inactive: -14.1%. In addition, the Potency result in test [2] and in test [9] was “inactive” in each case. Further, the activation is inactive: 3.13% in test [4], inactive: -6.87% [at 35.3 µM] in [7] (setting [11]) and inactive: 1.2% in test [8] (at 35.3 µM (top of the series)). Further, the viability change, negative = cytotoxic in test [6] (setting [11]) was inactive: 0.264% [at 35.3 µM].
With `CCCCO[P+](=O)OCCCC`, the activity change, negative = inhibition in test [1] was inactive: -1.69%; in test [5] (at 92.4 µM (top of the series)) it was inactive: 4.98% and inactive: -25.1%. In addition, the Potency result in [2] and in test [9] was “inactive” throughout. Besides, the activation in [10] was inactive: -0.0475% and inactive: -0.0121%; in [4] it was inactive: 0.736%; in [7] (setting [11]) it was inactive: -0.439% and inactive: -1.24%; in test [8] (at 76.8 µM (top of the series)), inactive: -0.76% and inactive: 0.505%. In addition, in [3], the activity, negative = cytotoxic was inactive: -1.38%. The viability change, negative = cytotoxic in test [6] (setting [11]) is inactive: 3.62% and inactive: -1.53%.
